Data reported in US20100273203A1 (priority 2009, published 2010).

Protein sequences, listed by entry. Tags and fused reporters are not part of them.
UniProt P20815, whole entry: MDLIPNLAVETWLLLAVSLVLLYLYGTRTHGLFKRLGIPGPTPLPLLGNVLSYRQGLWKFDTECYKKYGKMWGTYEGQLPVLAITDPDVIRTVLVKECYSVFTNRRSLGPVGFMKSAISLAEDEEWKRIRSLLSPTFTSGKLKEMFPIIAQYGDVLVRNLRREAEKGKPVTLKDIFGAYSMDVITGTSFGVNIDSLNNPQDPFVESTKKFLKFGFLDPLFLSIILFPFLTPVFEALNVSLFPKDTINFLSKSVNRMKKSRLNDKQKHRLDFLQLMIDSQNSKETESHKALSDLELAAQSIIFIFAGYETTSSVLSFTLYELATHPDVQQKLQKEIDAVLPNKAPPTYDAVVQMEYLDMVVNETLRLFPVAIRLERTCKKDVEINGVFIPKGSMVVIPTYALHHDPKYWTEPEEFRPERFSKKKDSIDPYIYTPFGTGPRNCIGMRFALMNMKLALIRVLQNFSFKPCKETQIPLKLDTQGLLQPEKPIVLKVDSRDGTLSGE

Target: CYP3A5 (Homo sapiens, UniProt P20815)
Assay: Steady-state metabolism of R- and S-warfarin by recombinant CYP3A5
[1] = 10-hydroxywarfarin formation, 37° C, pH 7.4

SMILES | Km (4′-hydroxywarfarin formation) [µM] | Vmax (4′-hydroxywarfarin formation) | Km (10-hydroxywarfarin formation) [µM] | Vmax [1]
CC(=O)C[C@H](c1ccccc1)c1c(O)c2ccccc2oc1=O [R-warfarin, (R) warfarin] | 244 | 108 pmol product/min/nmol P450 | 129 | 263 pmol product/min/nmol P450
CC(=O)C[C@@H](c1ccccc1)c1c(O)c2ccccc2oc1=O [S-warfarin, (S) warfarin] | 672 | 157 pmol product/min/nmol P450 | 318 | 67 pmol product/min/nmol P450
